High-throughput results (PubChem BioAssay)
DT40 TDP1 no CPT = qHTS for Inhibitors of human tyrosyl-DNA phosphodiesterase 1 (TDP1): qHTS in cells in absence of CPT; DT40 Tdp1-/- hTDP1 cells, no CPT, ATP luminescence, 48 h; Potency, µM (series often up to 46.2 µM), without a hit: at the top dose activity change, negative = growth inhibition, usual class: inhibitors; 15% of 420,000 active; AID 686978, 2013; further: potency means the concentration at half of the fitted maximal effect; on the % scale 0 is the no-effect control and ±100 the full control effect; nearly all actives have a fitted effect of over 55% in size
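Luminescent ATP content (CellTiter-Glo) served as the growth readout. Knockout chicken DT40 cells expressing human TDP1 were exposed to compounds without camptothecin for a minimum 48 hr at 37 °C.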
DT40 TDP1 CPT = DT40-hTDP1 cell growth loss with CPT; chicken DT40 Tdp1-/-;hTDP1 cells + 20 nM CPT, ATP luminescence, 48 h; Potency, µM (doses to about 46.2 µM), for the others: at the highest dose activity change, negative = growth inhibition, most hits filed as inhibitors; 12% of 420,000 active; further: potency means the concentration at half of the fitted maximal effect; on the % scale 0 is the no-effect control and ±100 the full control effect; nearly all actives have a fitted effect of over 55% in size
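Chicken DT40 Tdp1-/- cells stably complemented with human TDP1 were seeded at 400 cells/well in medium containing 20 nM camptothecin, exposed to pin-transferred compounds, and grown at 37 °C for at least 48 hr. Viability was read as ATP luminescence.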
TDP1 inh = inhibitors of human tyrosyl-DNA phosphodiesterase TDP1; recombinant TDP1, AlphaScreen DNA substrate cleavage; AID 485290; 0.28% of 350,000 active; Potency, µM (titrated, usually from 130 µM), for inactives: at the highest dose activity change, negative = inhibition, usual class: inhibitors; further: potency means the concentration at half of the fitted maximal effect; on the % scale 0 is the no-effect control and ±100 the full control effect; nearly all actives have a fitted effect of over 40% in size
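Tdp1 1 nM final; 15 min RT w/ cpd; substrate 15 nM, 5 min; beads 10 ug/ml, 10 min; AlphaScreen read. Neg ctrl: no enzyme.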
uPA generation = inhibitors of cell surface uPA generation; 0.31% of 330,000 active; cell surface uPA generation assay, qHTS; AID 540303; Potency, µM (titrated, usually from 38.3 µM), without a hit: at the top dose activity change, negative = inhibition, actives largely listed as inhibitors; active means well fitted inhibition curve with a large enough effect; inconclusive means small, poorly fitted or top-dose-only effect; inactive means no such curve, though single readings can be large or run the other way; tested in mouse RAW 264.7 cells; further: potency means the concentration at half of the fitted maximal effect; on the % scale 0 is the no-effect control and ±100 the full control effect; nearly all actives have a fitted effect of over 55% in size
miR-21 reporter = raises the signal of a miR-21 reporter | HeLa miR-21 FLuc reporter, luciferase, 48 h | Potency, µM (highest dose often 38.3 µM), for inactives: at the highest dose reporter change, positive = more light | 340,000 tested, under 10 active | AID 2288; active = well fitted rising curve with a large enough effect; inconclusive = small, poorly fitted or top-dose-only effect; inactive = no such curve, though single readings can be large or run the other way;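 also: % of control where 0% means no effect; miR-21 action dims this reporter so a rising signal means less miR-21 action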
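Using DMEM plus 10% FBS, HeLa miR-21-FLuc cells are incubated with test compounds (final up to about 40uM) for 48 hours; firefly luciferase signal is then imaged following reagent-mediated lysis.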
* hit, by the source's call; ? = inconclusive; · = not tested or not shown. Only some compounds are listed: those with a hit (about 16% of all), similar ones and a draw of the others. Unless noted, the call rests on the fitted dose curve; in most records, active means well fitted curve in the direction sought with a large enough effect; inconclusive means small, poorly fitted or top-dose-only effect, or another doubt; inactive means no such curve, though single readings can be large; an effect the other way counts as inactive or inconclusive.

Short forms: A = DT40 TDP1 no CPT; B = DT40 TDP1 CPT; C = TDP1 inh; D = uPA generation; E = miR-21 reporter
> Cc1ccc2c(C)c(C(=O)N(Cc3ccncc3)CC3CCCO3)oc2c1C (stereo not given)
  A: 20.6µM*; B: 25.9µM*; C: 1.1%; D: 3.0%; E: 0.4%

> COC(=O)CC(=O)CSc1nc2cc(C(=O)NC(C)C)ccc2c(=O)n1CCc1ccccc1
  A: 23.1µM*; B: ?; C: 5.3%; D: ·; E: 9.5%

> COCCn1c(SCC(=O)c2c(C)[nH]c3ccccc23)nc2cc(C(=O)NC(C)C)ccc2c1=O
  A: 16.4µM*; B: 11.6µM*; C: 5.3%; D: ·; E: 1.3%

> COCCn1c(SCC(=O)c2c[nH]c3ccccc23)nc2cc(C(=O)NC(C)C)ccc2c1=O
  A: ?; B: ?; C: -2.6%; D: ·; E: 4.4%

> COC(=O)CC(=O)CSc1nc2cc(C(=O)NCC(C)C)ccc2c(=O)n1CCc1ccccc1
  A: 20.6µM*; B: ?; C: 7.9%; D: ·; E: 21.8%

> CCC(=O)Nc1cc(C(C)C)c(O)cc1C
  A: -15.6%; B: -6.3%; C: 4.1%; D: 0.3%; E: -2.3%

> Cc1cccc(N2CCN(c3ncnc4onc(C)c34)CC2)c1C
  A: ?; B: ?; C: -2.1%; D: ·; E: 3.2%

> Cc1cccc(N2CCN(c3ncnc4onc(C)c34)CC2C)c1 (stereo not given)
  A: 2.31µM*; B: 4.61µM*; C: 4.2%; D: ·; E: ?

> Cc1noc2ncnc(N3CCN(c4cccc(C(F)(F)F)c4)CC3)c12
  A: 8.2µM*; B: 11.6µM*; C: -1.1%; D: ·; E: 25.3%

> Cc1cccc(N2CCN(c3ncnc4onc(-c5ccc(F)cc5)c34)CC2C)c1 (stereo not given)
  A: 14.6µM*; B: 16.4µM*; C: -3.2%; D: ·; E: 23.3%

> CN(Cc1ccccc1)C(=O)c1ccccc1NC(=O)C1=CSCCO1
  A: -9.1%; B: -5.5%; C: 0.2%; D: -15.3%; E: -1.7%

> CC(=O)c1ccc(NC(=O)CSc2nc3c(=O)n(C)c(=O)n(C)c3n2C)cc1
  A: -13.0%; B: 6.7%; C: 0.0%; D: ·; E: 3.5%

> Cc1ccc(Cl)cc1NS(=O)(=O)c1cc2c3c(c1)CC(=O)N3CCC2
  A: ?; B: ?; C: -7.8%; D: ·; E: 1.6%

> Cc1ccc(Cl)cc1NS(=O)(=O)c1ccc(N2CCCCS2(=O)=O)cc1
  A: 11.6µM*; B: ?; C: 6.2%; D: ·; E: 21.9%

> O=S(=O)(NCc1ccc(F)cc1)c1ccc(N2CCCCS2(=O)=O)cc1
  A: 20.6µM*; B: 23.1µM*; C: -6.2%; D: ·; E: 13.7%

Compound profiles, from the list above. Order of values: DT40 TDP1 no CPT	DT40 TDP1 CPT	TDP1 inh	uPA generation	miR-21 reporter
COCCn1c(SCC(=O)c2c(C)[nH]c3ccccc23)nc2cc(C(=O)NC(C)C)ccc2c1=O is listed as 16.4µM*	11.6µM*	5.3%	·	1.3%
COCCn1c(SCC(=O)c2c[nH]c3ccccc23)nc2cc(C(=O)NC(C)C)ccc2c1=O is listed as ?	?	-2.6%	·	4.4%
O=S(=O)(NCc1ccc(F)cc1)c1ccc(N2CCCCS2(=O)=O)cc1 is listed as 20.6µM*	23.1µM*	-6.2%	·	13.7%

New compounds follow.
Short forms: A = DT40 TDP1 no CPT; B = DT40 TDP1 CPT; C = TDP1 inh; D = uPA generation; E = miR-21 reporter
> O=S(=O)(NCc1ccc(F)cc1)c1ccc(-n2cnnn2)cc1
  A: ?; B: ?; C: -1.8%; D: -1.3%; E: 1.9%

> O=S(=O)(NCc1ccc(F)cc1)c1ccc2c(c1)OCCO2
  A: -24.3%; B: -15.1%; C: 5.2%; D: -0.6%; E: -15.3%

> O=S(=O)(NCc1ccccc1Cl)c1ccc(N2CCCCS2(=O)=O)cc1
  A: 20.6µM*; B: 16.4µM*; C: 3.8%; D: ·; E: -0.5%

> O=C1CCCN1c1ccc(S(=O)(=O)NCc2ccc(F)cc2)cc1
  A: ?; B: 20.6µM*; C: 1.8%; D: 2.5%; E: 7.9%

> N#Cc1cccc(NC(=O)c2ccc3c(c2)N(Cc2cccc(Cl)c2)C(=O)c2ccccc2S3(=O)=O)c1
  A: ?; B: ?; C: -1.3%; D: ·; E: 6.1%

> O=S(=O)(NCc1ccc(Cl)cc1)c1ccc(N2CCCCS2(=O)=O)cc1
  A: 8.2µM*; B: 11.6µM*; C: 3.8%; D: ·; E: ?

> O=S(=O)(NCCN1CCCC1)c1ccc(Cl)cc1
  A: 1.0%; B: -20.9%; C: ·; D: -1.0%; E: -2.1%

> O=C(CCSc1nnc(-c2ccncc2)o1)Nc1ccc(Cl)cc1
  A: -19.2%; B: -12.2%; C: 1.6%; D: 0.9%; E: -1.0%

> CCOC(=O)c1cc(-c2ccncc2)nc2c1c(C)nn2-c1ccccn1
  A: 16.4µM*; B: ?; C: 0.0%; D: 2.0%; E: -9.9%

> Cc1c(CN(C)C(=O)c2nn(C)cc2[N+](=O)[O-])cnn1C
  A: -25.0%; B: -7.8%; C: -7.9%; D: 1.5%; E: -1.8%

> Cc1c(CN(C)C(=O)/C=C/c2ccc([N+](=O)[O-])cc2)cnn1C
  A: ?; B: 23.1µM*; C: 3.0%; D: -3.1%; E: -3.4%

> CCN(CC(=O)NCc1cccs1)CC(=O)Nc1cccc(S(N)(=O)=O)c1
  A: 21.7%; B: -7.0%; C: 0.7%; D: -25.0%; E: ·

> CCOc1ccccc1NC(=O)c1cc(-c2ccccn2)nc2ccccc12
  A: 10.3µM*; B: 20.6µM*; C: 4.3%; D: ?; E: ·

> COC(=O)c1ccc(NC(=O)c2cc(-c3ccccn3)nc3ccccc23)cc1
  A: -13.8%; B: 2.8%; C: 0.0%; D: 7.7%; E: 1.7%

> COc1ccc(NC(=O)c2cc(-c3ccccn3)nc3ccccc23)c(OC)c1
  A: 14.6µM*; B: 29.1µM*; C: 7.3%; D: 0.8%; E: ·
